Patent US4223137A, “Carbostyril derivatives and process for preparing the same” (Otsuka Pharmaceutical Co., Ltd., priority 1976, dated 1980)

Protein sequences, listed by entry. Tags and fused reporters are not part of them.
UniProt P54833, whole entry: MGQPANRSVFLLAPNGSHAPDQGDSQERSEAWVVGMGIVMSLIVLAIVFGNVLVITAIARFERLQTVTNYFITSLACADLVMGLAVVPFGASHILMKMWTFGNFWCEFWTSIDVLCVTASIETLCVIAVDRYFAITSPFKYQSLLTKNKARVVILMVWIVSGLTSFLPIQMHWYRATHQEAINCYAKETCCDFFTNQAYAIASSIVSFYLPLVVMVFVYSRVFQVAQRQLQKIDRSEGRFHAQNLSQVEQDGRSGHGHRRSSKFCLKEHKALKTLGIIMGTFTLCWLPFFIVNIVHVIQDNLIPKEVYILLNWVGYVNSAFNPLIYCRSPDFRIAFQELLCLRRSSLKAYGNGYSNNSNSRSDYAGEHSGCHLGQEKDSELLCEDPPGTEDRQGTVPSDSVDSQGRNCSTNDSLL

Experiments:
β-adrenoreceptor [1] = target: T1, β-adrenoreceptor (Canis lupus familiaris, UniProt P54833); experiment: Inhibition of histamine-induced bronchial resistance increase (bronchospasm), i.v., Konzett-Rossler method, anesthetized dogs; assay type: in vivo, dog (male hybrid adult dogs); settings: ED50 compared to isoproterenol as standard compound
T1 construct: from tissue; host or cells: airways of anesthetized dogs, in vivo
Protocol: (§1) The stimulating activity of the compounds of this invention on β-adrenoreceptor was determined as follows: Male hydrid adult dogs, weighing 10 to 15 kg, were anesthesized with sodium pentobartital administered intravenously at a level of 30 mg/kg of body weight. Each of the anesthesized dogs was secured on its back and a cannula was inserted into the trachea. Artificial respiration was conducted using a device according to the Konzett-Rossler method (Konzett H. & Rossler R., "Versuchsanordnug zu Untersuchungen an der Bronchial Moskolatur", Arch. Exp. Path., Pharmack, 195, 71-74, 27-40 (1940). The volume of the air which overflowed at the time of inhalation was measured through a pneumotachometer to determine the bronchial resistance and the values obtained were recorded on a polygraph.
(§2) In the above procedure, histamine was employed as a bronchoconstrictor at a dosage level of 10 μg/kg of body weight, and an aqueous solution containing each of the test compounds and controls shown in Table 1 below was then administered to each of the anesthesized dogs through the femoral vein at the various dosage levels as shown in Table 1 below 1 minute before the administration of the histamine. […]
(§3) ED50 values were calculated using a Dose Response curve. At the same time the pulse was measured through a transducer and the value was recorded on a polygraph.

β2-receptor = experiment: Separation of bronchial resistance effect from heart rate effect (β2 selectivity), anesthetized dogs; assay type: in vivo, dog (male hybrid adult dogs); settings: i.v.
Protocol: as §1, §2, §3

β-adrenoreceptor [2] = experiment: Heart rate (pulse) increase, i.v., anesthetized dogs; parameters: species or system dog (male hybrid adult dogs); settings: dog, in vivo
Protocol: The stimulating activity of the compounds of this invention on β-adrenoreceptor was determined as follows: Male hydrid adult dogs, weighing 10 to 15 kg, were anesthesized with sodium pentobartital administered intravenously at a level of 30 mg/kg of body weight. Each of the anesthesized dogs was secured on its back and a cannula was inserted into the trachea.
In the above procedure, histamine was employed as a bronchoconstrictor at a dosage level of 10 μg/kg of body weight, and an aqueous solution containing each of the test compounds and controls shown in Table 1 below was then administered to each of the anesthesized dogs through the femoral vein at the various dosage levels as shown in Table 1 below 1 minute before the administration of the histamine. Sodium pentobartital was infused during the procedure at a dosage level of 4 mg/kg of body weight/hr using an automatic injector in order to inhibit spontaneous respiration and to maintain the anesthetic condition constant over the test period.
as §3

CCC(NC(C)C)C(O)c1ccc(OC(=O)Cc2ccccc2)c2[nH]c(=O)ccc12.Cl (stereo not drawn) [(7), 8-phenylacetoxy-5-(1-hydroxy-2-isopropylaminobutyl)carbostyril hydrochloride]
Bronchial Resistance (BR) Relative Potency (β-adrenoreceptor [1]): 1.13
Separation Ratio HR(Relative Potency)/BR(Relative Potency) (β2-receptor): 11.2
Heart Rate (HR) Relative Potency (β-adrenoreceptor [2]): 12.6
